Values of other authors, collected in patent US12551577B2, “7-ethyl-10-hydroxycamptothecin drug precursor with fluorescence activity, and preparation method and use thereof” (SOOCHOW UNIVERSITY, priority 2021, dated 2026).

Tested on: carboxylesterase
Conditions: in vivo; cited from earlier work

For CCc1c2c(nc3ccc(OC(=O)N4CCC(N5CCCCC5)CC4)cc13)-c1cc3c(c(=O)n1C2)COC(=O)[C@]3(O)CC [irinotecan], which “fraction of CPT-11 efficiently converted into SN-38” value is on record?
The value was 2-8%.
